From patent US20230295259A1 (Protagonist Therapeutics, Inc., priority 2020, published 2023)

Biological target: T1, ferroportin (endogenously expressed in T47D cells) (Homo sapiens, UniProt Q9NP59)
T1 construct: is a human breast carcinoma adherent cell line which endogenously expresses ferroportin; host or cells: T47D
T1 sequence (Q9NP59 1-571): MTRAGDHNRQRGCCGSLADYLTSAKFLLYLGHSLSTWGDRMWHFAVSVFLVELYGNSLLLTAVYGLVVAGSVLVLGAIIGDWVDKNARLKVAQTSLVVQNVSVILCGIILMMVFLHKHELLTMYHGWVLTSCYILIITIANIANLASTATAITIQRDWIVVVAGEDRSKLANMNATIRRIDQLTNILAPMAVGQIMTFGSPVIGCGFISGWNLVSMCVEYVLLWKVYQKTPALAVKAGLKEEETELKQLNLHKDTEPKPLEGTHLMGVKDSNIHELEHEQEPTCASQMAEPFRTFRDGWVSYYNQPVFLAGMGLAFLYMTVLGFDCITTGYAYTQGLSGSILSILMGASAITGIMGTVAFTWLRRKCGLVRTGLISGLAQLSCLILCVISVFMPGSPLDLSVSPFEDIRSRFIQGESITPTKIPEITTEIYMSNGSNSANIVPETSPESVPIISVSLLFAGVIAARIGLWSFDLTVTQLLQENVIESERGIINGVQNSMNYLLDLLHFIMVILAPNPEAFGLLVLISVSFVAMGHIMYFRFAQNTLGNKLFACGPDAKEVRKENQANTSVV
Assay: T47D cell-based ferroportin internalization assay in presence of 0.5% mouse serum albumin (AF647-conjugated detection peptide, flow cytometry)

[1] = read-out: IC50: T47D Internalization MSA
[2] = read-out: T47D IC50, Table 2C, class symbols

Isovaleric Acid-E-T-H-[Dpa]-P—C—I-[Lys(PEG12_IsoGlu_C18_Diacid)]-[bhPhe]-[(D)Lys(PEG11_OMe)]—C—NH2 [Compound 292]
IC50 [1]: 628 nM

Isovaleric Acid-E-T-H-[Phe(2,3-diF]-P—C—I-[Lys(1PEG2_1PEG2_IsoGlu_C18_Diacid)]-[bhPhe]-[(D)Lys]-C—NH2 [Compound 271]
IC50 [1]: 112 nM

Isovaleric Acid-E-T-H—F—P-[Cys]-I-Z_minus-F-E-P-R-S—K-G-[Cys]-K—NH2 [Compound 101]
IC50 [1]: 6.87 nM

Isovaleric Acid-E-T-H—F—P—C—I-[Lys(1PEG2_1PEG2_Ahx_C18_Diacid)]-F-E-P—R—S—K-G-C—K—NH2 [Compound 221]
IC50 [1]: 62.3 nM

Isovaleric Acid-E-T-H—F—P—C—I-[Lys(1PEG2_1PEG2_IsoGlu_C18_Diacid)]-F-E-P—R—S-G-C—NH2 [Compound 210]
IC50 [1]: 627 nM

Isovaleric Acid-E-T-H—F—P—C—I-[Lys(1PEG2_1PEG2_IsoGlu_C18_Diacid)]-F-E-P—R—S—K-G-C—K—NH2 [Compound 220]
IC50 [1]: 298 nM

Isovaleric Acid-E-T-H—F—P—C—I-[Lys(1PEG2_1PEG2_IsoGlu_C18_Diacid)]-F-E-P—R—S—K-G-C—NH2 [Compound 206]
IC50 [1]: 368 nM

Isovaleric Acid-E-T-H—F—P—C—I-[Lys(Ahx_Palm)]-F-E-P—R—S—K-G-C—K—NH2 [Compound 223]
IC50 [1]: 1.8 nM

Isovaleric Acid-E-T-H—F—P—C—I-[Lys(IsoGlu_C18_Diacid)]-F-E-P—R—S—K-G-C—K—NH2 [Compound 222]
IC50 [1]: > 1000 nM

Isovaleric Acid-E-T-H—F—P—C—I-[Lys(IsoGlu_Palm)]-F-E-P-[(D)Arg]-S—K-G-C—K—NH2 [Compound 227]
IC50 [1]: 18.1 nM

Isovaleric Acid-E-T-H—F—P—C—I-[Lys(IsoGlu_Palm)]-F-E-P-[Lys(Ac)]-S-G-C—NH2 [Compound 230]
IC50 [1]: 96.8 nM

Isovaleric Acid-E-T-H—F—P—C—I-[Lys(IsoGlu_Palm)]-F-E-P-[Lys(Ac)]-S—K-G-[Pen]-K—NH2 [Compound 229]
IC50 [1]: 50.7 nM

Isovaleric Acid-E-T-H—F—P—C—I-[Lys(IsoGlu_Palm)]-F-E-P—R-S-G-C—NH2 [Compound 226]
IC50 [1]: 37.2 nM

Isovaleric Acid-E-T-H—F—P—C—I-[Lys(IsoGlu_Palm)]-F-E-P—R—S—K-G-[Pen]-K—NH2 [Compound 224]
IC50 [1]: 17 nM

Isovaleric Acid-E-T-H—F—P—C—I-[Lys(PEG12_Ahx_C18 acid)]-F-E-P—R—S—K-G-[Pen]-K—NH2 [Compound 304]
IC50 [1]: 1.58 nM

Isovaleric Acid-E-T-H—F—P—C—I-[Lys(PEG12_Ahx_C18_Diacid)]-F-E-P—R—S—K-G-[Pen]-K—NH2 [Compound 302]
IC50 [1]: 395 nM

Isovaleric Acid-E-T-H—F—P—C—I-[Lys(PEG12_C18 acid)]-F-E-P—R—S—K-G-[Pen]-K—NH2 [Compound 303]
IC50 [1]: 1.54 nM

Isovaleric Acid-E-T-H—F—P—C—I-[Lys(PEG12_C18_Diacid)]-F-E-P—R—S—K-G-[Pen]-K—NH2 [Compound 301]
IC50 [1]: 343 nM

Isovaleric Acid-Gla-T-H-[Dpa]-P—C—I-[Lys(1PEG2_1PEG2_IsoGlu_C18_Diacid)]-[bhPhe]-[(D)Lys]-C—NH2 [Compound 268]
IC50 [1]: 461 nM

Isovaleric Acid-[(D)Glu]-T-H-[Dpa]-P—C—I-[Lys(1PEG2_1PEG2_Ahx_C18_Diacid)]-[bhPhe]-[(D)Lys]-C—NH2 [Compound 298]
IC50 [1]: 54.8 nM

Isovaleric Acid-[Glu_OMe]-T-H-[Dpa]-P—C—I-[Lys(1PEG2_1PEG2_Ahx_C18_Diacid)]-[bhPhe]-[(D)Lys]-C—NH2 [Compound 277]
IC50 [1]: 36.4 nM

Isovaleric Acid-bhE-T-H-[Dpa]-P—C—I-[Lys(1PEG2_1PEG2_IsoGlu_C18_Diacid)]-[bhPhe]-[(D)Lys]-C—NH2 [Compound 267]
IC50 [1]: 566 nM

[Isovaleric Acid]-E-A—H-[Dpa]-P—C—I-[(D)Lys]-[bhPhe]-[Lys(Ahx_Palm)]-[(D)Lys]-C—NH2 [Compound 612]
IC50 [2]: 11 to 100 nM

[Isovaleric Acid]-E-S-H-[Dpa]-P—C—I-[(D)Lys]-[bhPhe]-[Lys(PEG12_Palm)]-R—C—NH2 [Compound 605]
IC50 [2]: 11 to 100 nM

Like-named read-outs stand apart in the source and are kept apart here.
